Values of other authors in article PMC10433104 (Journal of medicinal chemistry, 2023).

Amino acid sequences for entries named in this document (tags omitted). Residues count along the entry.
UniProt Q08499, 1-748 isoform Q08499-11 S129D, species assumed: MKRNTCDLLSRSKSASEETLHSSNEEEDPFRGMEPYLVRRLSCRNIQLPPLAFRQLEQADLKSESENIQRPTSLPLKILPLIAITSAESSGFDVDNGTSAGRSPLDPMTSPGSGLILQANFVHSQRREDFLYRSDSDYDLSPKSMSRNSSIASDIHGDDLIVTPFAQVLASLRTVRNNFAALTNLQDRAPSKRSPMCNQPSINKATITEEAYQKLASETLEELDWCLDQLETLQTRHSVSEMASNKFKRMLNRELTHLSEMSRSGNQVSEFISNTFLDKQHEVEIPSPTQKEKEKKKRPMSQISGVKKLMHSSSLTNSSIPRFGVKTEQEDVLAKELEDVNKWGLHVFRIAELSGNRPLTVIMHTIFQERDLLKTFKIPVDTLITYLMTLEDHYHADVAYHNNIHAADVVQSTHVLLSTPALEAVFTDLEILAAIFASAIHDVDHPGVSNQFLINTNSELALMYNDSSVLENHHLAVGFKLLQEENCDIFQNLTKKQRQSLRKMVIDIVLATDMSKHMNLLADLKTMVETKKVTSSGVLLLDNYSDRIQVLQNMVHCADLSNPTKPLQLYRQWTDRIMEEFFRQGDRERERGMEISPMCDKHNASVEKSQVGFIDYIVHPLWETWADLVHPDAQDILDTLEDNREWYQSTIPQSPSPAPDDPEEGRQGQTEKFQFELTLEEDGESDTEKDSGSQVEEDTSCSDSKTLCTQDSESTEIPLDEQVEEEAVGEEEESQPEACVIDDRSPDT

Target: PDE4D7-S129D (PDE4D*) (Homo sapiens, UniProt Q08499, S190D)
Settings: read-out: PDE4D* IC50, assay result adopted from ref 22; cited from earlier work

`COc1ccc(Cc2cn[nH]c2)nc1-c1cccc([N+](=O)[O-])c1` [Compound 1] and `COc1ccc(Cc2ccncc2)nc1-c1cccc([N+](=O)[O-])c1` [Compound 27] are within 1.5-fold of each other in IC50: 3.5 nM for the first, 2.8 nM for the second.

In the case of `COc1ccc(Cc2ccncc2)nc1-c1cccc(Cl)c1` [Compound 28], the IC50 is given as 5.1 nM.
